Laboratory results as given in publication PMC12562640, “Investigating Amphoteric 3,4′-Biscoumarin-Based ortho-[(Dialkylamino)methyl]phenols as Dual MAO and ChE Inhibitors” (International Journal of Molecular Sciences, 2025).

Chains of the proteins cited; added tags and fusions are not shown. Residues count along the entry.
UniProt O42275, 24-633 limits assumed: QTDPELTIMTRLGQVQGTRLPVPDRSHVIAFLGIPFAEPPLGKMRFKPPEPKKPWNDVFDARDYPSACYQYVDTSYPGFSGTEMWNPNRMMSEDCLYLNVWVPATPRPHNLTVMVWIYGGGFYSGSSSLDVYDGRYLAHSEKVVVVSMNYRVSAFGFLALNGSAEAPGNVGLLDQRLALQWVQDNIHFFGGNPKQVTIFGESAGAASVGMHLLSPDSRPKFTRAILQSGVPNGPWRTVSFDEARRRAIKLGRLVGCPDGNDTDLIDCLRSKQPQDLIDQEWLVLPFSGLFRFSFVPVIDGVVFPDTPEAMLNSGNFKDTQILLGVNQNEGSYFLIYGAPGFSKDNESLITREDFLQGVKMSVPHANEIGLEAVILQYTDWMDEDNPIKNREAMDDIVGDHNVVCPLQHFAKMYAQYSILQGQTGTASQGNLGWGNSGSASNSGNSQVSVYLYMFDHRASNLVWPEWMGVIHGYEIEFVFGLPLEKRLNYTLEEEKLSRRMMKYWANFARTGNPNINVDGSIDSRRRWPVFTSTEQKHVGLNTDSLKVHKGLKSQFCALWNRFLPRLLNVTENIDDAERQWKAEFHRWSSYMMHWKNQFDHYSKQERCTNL
UniProt P81908, whole entry: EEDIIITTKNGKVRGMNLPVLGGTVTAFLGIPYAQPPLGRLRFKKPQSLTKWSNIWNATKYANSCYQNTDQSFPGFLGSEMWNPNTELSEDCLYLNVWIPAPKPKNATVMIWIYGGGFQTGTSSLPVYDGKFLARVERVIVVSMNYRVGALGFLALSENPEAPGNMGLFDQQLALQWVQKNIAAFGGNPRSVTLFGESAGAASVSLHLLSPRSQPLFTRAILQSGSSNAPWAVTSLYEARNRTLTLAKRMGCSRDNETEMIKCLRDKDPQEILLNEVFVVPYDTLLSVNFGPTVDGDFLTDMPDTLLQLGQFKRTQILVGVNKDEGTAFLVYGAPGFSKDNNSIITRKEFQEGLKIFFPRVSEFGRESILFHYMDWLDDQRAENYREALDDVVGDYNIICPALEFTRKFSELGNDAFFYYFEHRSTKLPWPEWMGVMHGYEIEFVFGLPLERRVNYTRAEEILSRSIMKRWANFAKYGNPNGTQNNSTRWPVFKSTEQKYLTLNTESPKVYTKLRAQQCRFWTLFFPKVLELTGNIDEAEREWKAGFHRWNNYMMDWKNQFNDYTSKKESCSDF
UniProt P21397, whole entry: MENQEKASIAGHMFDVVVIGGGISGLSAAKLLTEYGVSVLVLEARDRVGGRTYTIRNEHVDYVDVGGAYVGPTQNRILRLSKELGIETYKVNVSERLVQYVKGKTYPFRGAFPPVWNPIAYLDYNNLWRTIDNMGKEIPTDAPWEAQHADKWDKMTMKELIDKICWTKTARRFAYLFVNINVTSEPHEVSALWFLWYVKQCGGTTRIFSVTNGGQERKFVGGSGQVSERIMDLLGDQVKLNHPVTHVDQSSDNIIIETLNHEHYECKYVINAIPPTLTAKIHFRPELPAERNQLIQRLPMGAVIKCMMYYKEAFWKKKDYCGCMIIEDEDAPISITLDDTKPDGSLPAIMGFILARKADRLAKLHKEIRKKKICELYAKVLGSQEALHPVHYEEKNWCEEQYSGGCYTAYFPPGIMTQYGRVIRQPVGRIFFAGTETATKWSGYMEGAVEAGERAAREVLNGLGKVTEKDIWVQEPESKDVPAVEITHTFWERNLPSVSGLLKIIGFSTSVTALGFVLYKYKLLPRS
UniProt P27338, whole entry: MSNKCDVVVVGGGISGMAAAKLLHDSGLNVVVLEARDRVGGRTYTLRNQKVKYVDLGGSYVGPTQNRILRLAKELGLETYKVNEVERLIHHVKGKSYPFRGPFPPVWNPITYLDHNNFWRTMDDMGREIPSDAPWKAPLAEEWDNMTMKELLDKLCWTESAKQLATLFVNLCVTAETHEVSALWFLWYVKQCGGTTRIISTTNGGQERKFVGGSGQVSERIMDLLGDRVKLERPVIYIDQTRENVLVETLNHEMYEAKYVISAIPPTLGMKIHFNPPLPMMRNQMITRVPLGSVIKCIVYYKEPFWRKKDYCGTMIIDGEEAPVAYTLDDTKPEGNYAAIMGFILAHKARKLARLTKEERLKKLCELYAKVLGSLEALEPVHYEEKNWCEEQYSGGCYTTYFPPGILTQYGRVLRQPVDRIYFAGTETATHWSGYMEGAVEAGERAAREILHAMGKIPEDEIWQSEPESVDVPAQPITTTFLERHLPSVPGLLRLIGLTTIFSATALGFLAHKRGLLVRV

Assays:
electric eel eeAChE = electric eel eeAChE (Electrophorus electricus, UniProt O42275)
horse serum eqBChE = horse serum eqBChE (Equus caballus, UniProt P81908)
human huMAO-A = human huMAO-A (Homo sapiens, UniProt P21397); details: at 10 µM concentration, mean ± SD
human huMAO-B = human huMAO-B (Homo sapiens, UniProt P27338)
[1] = at 10 µM concentration, mean ± SD

Structure (SMILES) | eeAChE % inhibition (electric eel eeAChE; [1]) | eqBChE % inhibition (horse serum eqBChE; [1]) | huMAO-A % inhibition (human huMAO-A) | IC50 (human huMAO-B) | IC50 (electric eel eeAChE) | IC50 (horse serum eqBChE; read-out: eqBChE IC50, mean ± SD of three independent determinations, ~10 means 50–60% inhibition at 10 µM) | huMAO-B % inhibition (human huMAO-B; [1])
CN(Cc1ccccc1)Cc1c(O)ccc2c(-c3cc4ccccc4oc3=O)cc(=O)oc12 | [40 ± 9] % | [31 ± 4] % | [28 ± 4] % | 10 µM |  |  | 
CC(C)CN(Cc1c(O)ccc2c(-c3cc4ccccc4oc3=O)cc(=O)oc12)CC(C)C |  |  | [27 ± 2] % |  | 10 µM | 10 µM | [28 ± 4] %
